For this assay, the target named is Somatostatin receptor type 3 (Homo sapiens, UniProt P32745). Put plainly: Agonist activity at human SSTR3 expressed in CHO cells assessed as intracellular cAMP level after 45 mins by time-resolved fluorescence assay relative to control. Type of assay: functional, cell-based. For orientation: cAMP levels reflect the balance of adenylyl cyclase and phosphodiesterase activity.

Protein sequences, listed by entry. Tags and fused reporters are not part of them. Lines headed by an entry give the natural chain unless they say otherwise; changes in a name come on top.
UniProt P32745: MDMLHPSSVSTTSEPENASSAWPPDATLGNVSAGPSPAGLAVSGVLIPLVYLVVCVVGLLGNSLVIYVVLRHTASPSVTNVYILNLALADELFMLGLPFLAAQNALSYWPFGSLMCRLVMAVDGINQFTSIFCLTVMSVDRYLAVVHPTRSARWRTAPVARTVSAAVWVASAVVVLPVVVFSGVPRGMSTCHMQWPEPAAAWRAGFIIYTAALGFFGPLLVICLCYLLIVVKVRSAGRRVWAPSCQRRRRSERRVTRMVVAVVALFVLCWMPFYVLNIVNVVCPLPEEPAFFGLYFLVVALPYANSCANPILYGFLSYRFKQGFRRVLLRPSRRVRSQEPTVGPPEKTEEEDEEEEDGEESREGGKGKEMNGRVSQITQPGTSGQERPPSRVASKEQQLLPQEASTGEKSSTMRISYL

Take `Cc1ccc(-c2c[nH]c(C3(NCc4cncnc4)CCCC3)n2)cc1`: the Activity worked out at 63%.

With `Cc1ccc(-c2c[nH]c(C3(NCc4c[nH]c5ccccc45)CC3)n2)cc1`, the Activity stood at 23%.

The record behind these values is ChEMBL document CHEMBL3603781, “Discovery of substituted (4-phenyl-1H-imidazol-2-yl)methanamine as potent somatostatin receptor 3 agonists” (Bioorg Med Chem Lett, 2015).
